From patent publication US9050378B2, “N2S2 chelate-targeting ligand conjugates” (Board of Regents, The University of Texas System, priority 2003, dated 2015)

Experiments:
[1] = tested on: A431 (an EGFR overexpressing xenograft); parameters: species or system mice; settings: mouse, in vivo, iv
Method: The biodistribution of tracer in each sample was calculated as percentage of the injected dose per gram of tissue wet weight (% ID/g).

[2] = tested on: DiFi human colon cancer cells; assay: Cell proliferation assay (MTT); type: cell-based; settings: versus untreated cells
Method: Briefly, DiFi cells are known to undergo apoptosis when they are exposed to C225 in cell culture. Cells were seeded onto 24-well culture plates. Cell viability was assayed by adding 50 ul of 10 mg/ml MTT (3-[4,5-dimethylthiazol-2-yl]-2,5-diphenyltetrazolium bromide) (Sigma) into 0.5 ml of culture medium and the cells were incubated for 3 h at a 37° C. in a CO2 incubator, followed by cell lysis with buffer containing 20% SDS in dimethyl formamide/H2O, pH 4.7, at 37° C. for more than 6 h. Cell viability was then determined by measuring the optical absorbance of cell lysate at a wavelength of 595 nm and normalizing the value with the corresponding untreated cells.

Row | Substance | Total tumor uptake [1] | cell viability / cell proliferation (MTT) [2]
1 | ^99mTc-EC-C225 | 6 % of injected dose | 
2 | EC-C225 |  | biologically active in inducing cell death
3 | C225: clinical grade anti-EGF receptor MAb from ImClone Systems |  | induced cell death (apoptosis)
